In PubChem BioAssay (Tox21):
Where “and” joins values, the source holds several entries; their conditions need not be identical. Equal values may be shown once. Only a part is listed here, and it is no random draw. Inconclusive results are not listed. Calls of active or inactive are those of the source. The call rests on the fitted dose curve; in most records, active means well fitted inhibition curve with a large enough effect in the repeat runs; inconclusive means weak or mixed curves; inactive means flat fitted curve, though single readings scatter.

Assay: qHTS assay to identify small molecule HDAC inhibitors (AID 1259364); further: top concentration of the series differs between compounds; nearly all actives have a fitted effect of over 45% in size
Details: HCT-116 HDAC-Glo I/II luminescence, 2 h; at 42.5 µM (top of the series)
From the text: U.S. Tox21 Program National Center for Advancing Translational Sciences [NCATS] NIH Chemical Genomics Center [NCGC] U.S. Environmental Protection Agency [EPA] National Institutes of Environmental Health Sciences [NIEHS] National Toxicology Program [NTP] U.S. Food and Drug Administration [FDA] Tox21 Assay Overview: Histone deacetylases (HDACs) are a group of epigenetic enzymes that regulate gene expression by histone deacetylation. HDACs are capable of introducing epigenetic modifications and such aberrations contribute to the onset and progression of several human diseases, thus making HDACs a popular therapeutic target. For identifying endogenous class I/II HDAC inhibitors a homogenous, luminogenic HDAC I/II cell based assay was used to measure the relative activity of class I and II HDACs from cells. Wild type HCT-116 cells were used to screen Tox21 libraries for identifying class I/II HDAC inhibitors.
Tox21 Assay Protocol Summary: HCT-116 cells were dispensed at 1,500 per well in 5uL of culture medium into white solid bottom 1536-well plates (Greiner Bio-One, Monroe, NC) using a Multidrop Combi (Thermo Scientific, Waltham, MA) dispenser. The assay plates were incubated at 37 C and 5% CO2 for an overnight, and then 23nL of compounds dissolved in DMSO and positive control were transferred using a Pintool station (Wako, San Diego, CA). The assay plates were incubated at 37C and 5% CO2 for 2hr. After compound treatment, 4uL of HDAC-Glo reagent (Promega Corporation, Madison, WI) was added to each well of the assay plates using Flying Reagent Dispenser (FRD, Aurora Discovery, San Diego, CA) and incubated the assay plates at room temperature for 30min. The luminescence signal was quantified using a ViewLux plate reader (Perkin Elmer, Shelton, CT).
On the % scale 0 is the no-effect control and ±100 the full control effect.

**Q.** Which activity change, negative = inhibition does the source give for `NC(=O)Nc1ccc([As](=O)(O)O)cc1` here?
**A.** Its activity change, negative = inhibition is inactive: 0.633%.

Same assay, conditions: HCT-116 HDAC-Glo I/II luminescence, 2 h; at 92.4 µM (top of the series)

**Q.** Which activity change, negative = inhibition does the source give for `NC(=O)Nc1ccc([As](=O)(O)O)cc1` here?
**A.** Its activity change, negative = inhibition is inactive: 6.3%.

Same assay, conditions: HCT-116 HDAC-Glo I/II luminescence, 2 h; at 92.4 µM (top of the series) unless noted

**Q.** Which activity change, negative = inhibition does the source give for `O=P(Cl)(Oc1ccccc1)Oc1ccccc1` here?
**A.** The activity change, negative = inhibition was inactive: 7.22%.

**Q.** For `CCOC(=O)Cl`, which activity change, negative = inhibition is on record?
**A.** The activity change, negative = inhibition was inactive: 3.58%.

**Q.** For `CCCCCCCCCCCCCC[P+](CCCCCC)(CCCCCC)CCCCCC`, which activity change, negative = inhibition is on record?
**A.** The activity change, negative = inhibition was inactive: 4.66%.

**Q.** With `CCCCC(CC)CO[P+](=O)OCC(CC)CCCC` (stereo not drawn) as the compound, how does the activity change, negative = inhibition read?
**A.** The activity change, negative = inhibition was inactive: 8.09%.

**Q.** With `O=C(Cl)Oc1ccccc1` as the compound, how does the activity change, negative = inhibition read?
**A.** Its activity change, negative = inhibition is inactive: -0.108%.

**Q.** For `COP(=S)(Cl)OC`, which activity change, negative = inhibition is on record?
**A.** Its activity change, negative = inhibition is inactive: -0.151%.

**Q.** Which activity change, negative = inhibition does the source give for `O=[p+]1oc2ccccc2c2ccccc21` (stereo not drawn) here?
**A.** Its activity change, negative = inhibition is inactive: 1.96%.

**Q.** Which activity change, negative = inhibition does the source give for `Cc1cc([N+](=O)[O-])c(O)c([N+](=O)[O-])c1` here?
**A.** Its activity change, negative = inhibition is inactive: -2.24%.

**Q.** Which activity change, negative = inhibition does the source give for `COC(=O)Cl` here?
**A.** The activity change, negative = inhibition was inactive: -0.902%.

**Q.** Which activity change, negative = inhibition does the source give for `CN(C(=O)Cc1cccc2occc12)[C@H]1CC[C@@]2(CCCO2)C[C@@H]1N1CCCC1` here?
**A.** The activity change, negative = inhibition was inactive: -2.16%.

**Q.** Which activity change, negative = inhibition does the source give for `O=[N+]([O-])c1ccc(S(=O)(=O)O)c([N+](=O)[O-])c1` here?
**A.** Its activity change, negative = inhibition is inactive: -2.5%.

**Q.** Which activity change, negative = inhibition does the source give for `O=C1C2CC=CCC2C(=O)N1SC(Cl)(Cl)C(Cl)Cl` (stereo not drawn) here?
**A.** The activity change, negative = inhibition was inactive: -1.84% and inactive: 0.505%.

**Q.** Which activity change, negative = inhibition does the source give for `CCCCOP(OCCCC)OCCCC` here?
**A.** Its activity change, negative = inhibition is inactive: -2.64%.

**Q.** With `O=[P+](Oc1ccccc1)Oc1ccccc1` as the compound, how does the activity change, negative = inhibition read?
**A.** The activity change, negative = inhibition was inactive: 3.89%.

**Q.** Which activity change, negative = inhibition does the source give for `O=C(Cl)OCCOC(=O)Cl` here?
**A.** Its activity change, negative = inhibition is inactive: 0.559%.

**Q.** Which activity change, negative = inhibition does the source give for `ClP(Cl)c1ccccc1` here?
**A.** The activity change, negative = inhibition was inactive: -0.536%.

**Q.** Which activity change, negative = inhibition does the source give for `O=P(Cl)(Cl)c1ccccc1` here?
**A.** The activity change, negative = inhibition was inactive: -5.19%.

**Q.** With `CN(C(=O)Cc1ccccc1)[C@H]1CC[C@@]2(CCCO2)C[C@@H]1N1CCCC1` as the compound, how does the activity change, negative = inhibition read?
**A.** The activity change, negative = inhibition was inactive: 16.4% [at 42.5 µM].

**Q.** With `CN(N=O)C(=N)N[N+](=O)[O-]` as the compound, how does the activity change, negative = inhibition read?
**A.** Its activity change, negative = inhibition is inactive: -8.65%.

**Q.** Which activity change, negative = inhibition does the source give for `CN(C(=O)Cc1ccc(Cl)c(Cl)c1)[C@H]1CC[C@@]2(CCCO2)C[C@@H]1N1CCCC1` here?
**A.** The activity change, negative = inhibition was inactive: 8.73% [at 42.5 µM].

**Q.** For `CC(C)CCCCCCCOP(OCCCCCCCC(C)C)Oc1ccccc1`, which activity change, negative = inhibition is on record?
**A.** Its activity change, negative = inhibition is inactive: 2.29%.

**Q.** With `CCOP(=S)(CC)Sc1ccccc1` (stereo not drawn) as the compound, how does the activity change, negative = inhibition read?
**A.** The activity change, negative = inhibition was inactive: -0.519%.

**Q.** For `CCNC(C)Cc1ccc2c(c1)OCO2` (stereo not drawn), which activity change, negative = inhibition is on record?
**A.** Its activity change, negative = inhibition is inactive: 0.466%.

**Q.** With `CC(C)OP(=S)(OC(C)C)SCCNS(=O)(=O)c1ccccc1` as the compound, how does the activity change, negative = inhibition read?
**A.** Its activity change, negative = inhibition is inactive: 1.95%.

**Q.** Which activity change, negative = inhibition does the source give for `CCCCO[P+](=O)OCCCC` here?
**A.** Its activity change, negative = inhibition is inactive: 3.63% and inactive: 1.55%.

**Q.** For `CCC(C)(OOC(C)(C)C)OOC(C)(C)C`, which activity change, negative = inhibition is on record?
**A.** The activity change, negative = inhibition was inactive: -0.224% [at 19 µM].
